Reference: the supplement of paper PMC11403291

Amino acid sequences for entries named in this document (tags omitted). A change or cut given only in a name is not applied to a line headed by its entry.
UniProt P27037, whole entry: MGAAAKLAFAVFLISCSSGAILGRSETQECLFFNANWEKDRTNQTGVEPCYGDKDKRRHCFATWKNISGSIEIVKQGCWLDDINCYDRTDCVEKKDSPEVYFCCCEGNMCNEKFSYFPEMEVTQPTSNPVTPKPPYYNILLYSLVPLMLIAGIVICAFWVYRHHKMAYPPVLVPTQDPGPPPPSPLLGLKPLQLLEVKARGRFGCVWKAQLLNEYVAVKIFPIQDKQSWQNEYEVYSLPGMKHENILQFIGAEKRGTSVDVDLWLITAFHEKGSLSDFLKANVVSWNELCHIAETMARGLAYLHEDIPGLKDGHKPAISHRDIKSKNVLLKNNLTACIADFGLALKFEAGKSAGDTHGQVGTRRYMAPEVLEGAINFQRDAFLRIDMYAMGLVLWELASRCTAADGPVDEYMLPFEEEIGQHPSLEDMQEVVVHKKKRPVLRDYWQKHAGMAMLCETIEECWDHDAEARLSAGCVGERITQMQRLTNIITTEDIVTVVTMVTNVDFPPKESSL
UniProt P36894: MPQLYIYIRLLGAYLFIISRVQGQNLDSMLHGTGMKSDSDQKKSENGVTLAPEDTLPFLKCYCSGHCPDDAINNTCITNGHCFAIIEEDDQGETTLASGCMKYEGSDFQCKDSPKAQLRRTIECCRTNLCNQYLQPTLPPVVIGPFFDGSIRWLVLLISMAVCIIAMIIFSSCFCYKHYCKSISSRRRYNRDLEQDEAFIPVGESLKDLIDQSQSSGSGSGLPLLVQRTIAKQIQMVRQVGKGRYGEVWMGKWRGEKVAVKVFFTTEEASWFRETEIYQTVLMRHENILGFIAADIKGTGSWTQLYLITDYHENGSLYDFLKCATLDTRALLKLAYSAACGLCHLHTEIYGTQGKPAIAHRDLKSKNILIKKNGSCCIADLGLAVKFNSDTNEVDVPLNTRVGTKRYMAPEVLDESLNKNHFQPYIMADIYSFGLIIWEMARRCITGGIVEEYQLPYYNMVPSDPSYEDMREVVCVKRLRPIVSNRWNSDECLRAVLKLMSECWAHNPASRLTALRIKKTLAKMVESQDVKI
UniProt P29317, whole entry: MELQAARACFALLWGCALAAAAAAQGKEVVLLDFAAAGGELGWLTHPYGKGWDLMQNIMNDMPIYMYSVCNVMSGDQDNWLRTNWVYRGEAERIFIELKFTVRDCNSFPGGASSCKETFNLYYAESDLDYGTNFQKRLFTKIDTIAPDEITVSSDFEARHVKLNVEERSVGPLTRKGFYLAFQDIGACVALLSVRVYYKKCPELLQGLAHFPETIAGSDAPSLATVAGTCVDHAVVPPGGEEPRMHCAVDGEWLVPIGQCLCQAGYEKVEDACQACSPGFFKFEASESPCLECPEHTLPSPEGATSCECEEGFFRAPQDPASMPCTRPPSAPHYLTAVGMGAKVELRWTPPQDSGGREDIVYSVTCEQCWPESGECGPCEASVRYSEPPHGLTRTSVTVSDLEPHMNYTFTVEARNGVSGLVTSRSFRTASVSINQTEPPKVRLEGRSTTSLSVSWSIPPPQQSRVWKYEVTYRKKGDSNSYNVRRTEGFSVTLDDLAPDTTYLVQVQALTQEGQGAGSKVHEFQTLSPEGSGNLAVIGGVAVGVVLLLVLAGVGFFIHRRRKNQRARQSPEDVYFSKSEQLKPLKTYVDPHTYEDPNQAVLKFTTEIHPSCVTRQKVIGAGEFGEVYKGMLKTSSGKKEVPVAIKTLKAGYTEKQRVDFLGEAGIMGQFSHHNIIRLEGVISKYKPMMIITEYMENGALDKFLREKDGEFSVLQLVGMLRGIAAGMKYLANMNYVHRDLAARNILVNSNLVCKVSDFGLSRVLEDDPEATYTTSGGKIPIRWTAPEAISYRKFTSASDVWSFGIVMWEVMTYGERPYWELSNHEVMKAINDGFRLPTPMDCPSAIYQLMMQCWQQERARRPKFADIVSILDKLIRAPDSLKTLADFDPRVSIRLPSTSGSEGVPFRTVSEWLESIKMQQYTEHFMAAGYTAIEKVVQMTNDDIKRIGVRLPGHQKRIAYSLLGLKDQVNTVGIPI
UniProt P07332: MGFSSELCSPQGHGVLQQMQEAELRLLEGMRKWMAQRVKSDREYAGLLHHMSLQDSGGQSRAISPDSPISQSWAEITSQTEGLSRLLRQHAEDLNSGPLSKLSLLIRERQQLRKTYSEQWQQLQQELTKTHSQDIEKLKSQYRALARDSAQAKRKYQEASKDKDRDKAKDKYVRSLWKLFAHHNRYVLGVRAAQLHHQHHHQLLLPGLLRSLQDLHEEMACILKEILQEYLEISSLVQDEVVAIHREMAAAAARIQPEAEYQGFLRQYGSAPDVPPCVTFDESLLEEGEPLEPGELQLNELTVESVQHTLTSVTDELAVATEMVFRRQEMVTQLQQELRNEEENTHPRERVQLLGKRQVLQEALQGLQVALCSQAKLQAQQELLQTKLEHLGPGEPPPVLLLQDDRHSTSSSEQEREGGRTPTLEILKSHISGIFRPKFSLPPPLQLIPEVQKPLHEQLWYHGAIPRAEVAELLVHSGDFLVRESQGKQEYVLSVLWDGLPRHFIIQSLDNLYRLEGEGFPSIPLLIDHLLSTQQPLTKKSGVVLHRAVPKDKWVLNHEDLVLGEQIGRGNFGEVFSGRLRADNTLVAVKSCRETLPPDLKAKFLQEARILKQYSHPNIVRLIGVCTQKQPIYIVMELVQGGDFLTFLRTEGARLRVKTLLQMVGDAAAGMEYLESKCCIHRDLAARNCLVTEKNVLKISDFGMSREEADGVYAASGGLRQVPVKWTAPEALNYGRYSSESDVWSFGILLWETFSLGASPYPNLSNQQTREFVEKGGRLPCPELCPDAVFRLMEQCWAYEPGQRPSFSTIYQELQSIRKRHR
UniProt P51617, whole entry, looked up: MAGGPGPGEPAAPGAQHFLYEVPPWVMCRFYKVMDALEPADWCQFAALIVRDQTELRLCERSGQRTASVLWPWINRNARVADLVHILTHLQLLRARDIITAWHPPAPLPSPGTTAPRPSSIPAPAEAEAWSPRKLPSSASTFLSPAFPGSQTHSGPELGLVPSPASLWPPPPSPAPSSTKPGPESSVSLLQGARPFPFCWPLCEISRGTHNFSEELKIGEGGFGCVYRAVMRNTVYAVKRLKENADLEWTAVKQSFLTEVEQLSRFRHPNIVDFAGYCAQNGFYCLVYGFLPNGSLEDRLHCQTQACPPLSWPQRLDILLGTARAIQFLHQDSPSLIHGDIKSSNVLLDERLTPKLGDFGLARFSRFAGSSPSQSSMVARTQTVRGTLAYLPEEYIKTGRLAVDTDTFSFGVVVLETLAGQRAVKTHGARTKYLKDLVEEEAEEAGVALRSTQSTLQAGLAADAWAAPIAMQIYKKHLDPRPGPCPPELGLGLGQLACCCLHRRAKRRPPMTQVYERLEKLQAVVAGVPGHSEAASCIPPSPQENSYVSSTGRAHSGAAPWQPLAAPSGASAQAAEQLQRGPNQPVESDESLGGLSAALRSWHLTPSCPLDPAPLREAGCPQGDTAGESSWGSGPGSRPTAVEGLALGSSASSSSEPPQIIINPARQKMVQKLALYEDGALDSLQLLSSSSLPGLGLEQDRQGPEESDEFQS
UniProt Q04759: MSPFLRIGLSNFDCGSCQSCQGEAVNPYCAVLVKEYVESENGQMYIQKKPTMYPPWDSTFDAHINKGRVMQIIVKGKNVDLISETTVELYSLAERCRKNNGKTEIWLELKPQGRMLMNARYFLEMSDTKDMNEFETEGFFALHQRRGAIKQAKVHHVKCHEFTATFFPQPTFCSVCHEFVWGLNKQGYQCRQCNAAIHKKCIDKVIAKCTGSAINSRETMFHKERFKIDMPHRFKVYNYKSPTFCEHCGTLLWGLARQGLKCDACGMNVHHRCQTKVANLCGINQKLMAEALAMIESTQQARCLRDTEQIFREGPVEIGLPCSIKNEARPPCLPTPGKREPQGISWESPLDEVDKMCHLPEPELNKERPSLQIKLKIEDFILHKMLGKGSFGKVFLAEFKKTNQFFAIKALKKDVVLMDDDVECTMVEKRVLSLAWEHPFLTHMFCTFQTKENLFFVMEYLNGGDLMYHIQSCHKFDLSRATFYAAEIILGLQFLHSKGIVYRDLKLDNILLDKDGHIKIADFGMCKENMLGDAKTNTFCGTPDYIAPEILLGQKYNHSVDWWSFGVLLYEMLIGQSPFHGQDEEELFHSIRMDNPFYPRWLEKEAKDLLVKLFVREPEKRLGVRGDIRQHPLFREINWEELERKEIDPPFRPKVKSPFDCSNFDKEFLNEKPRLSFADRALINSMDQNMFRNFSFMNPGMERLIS
UniProt Q14289, whole entry, looked up: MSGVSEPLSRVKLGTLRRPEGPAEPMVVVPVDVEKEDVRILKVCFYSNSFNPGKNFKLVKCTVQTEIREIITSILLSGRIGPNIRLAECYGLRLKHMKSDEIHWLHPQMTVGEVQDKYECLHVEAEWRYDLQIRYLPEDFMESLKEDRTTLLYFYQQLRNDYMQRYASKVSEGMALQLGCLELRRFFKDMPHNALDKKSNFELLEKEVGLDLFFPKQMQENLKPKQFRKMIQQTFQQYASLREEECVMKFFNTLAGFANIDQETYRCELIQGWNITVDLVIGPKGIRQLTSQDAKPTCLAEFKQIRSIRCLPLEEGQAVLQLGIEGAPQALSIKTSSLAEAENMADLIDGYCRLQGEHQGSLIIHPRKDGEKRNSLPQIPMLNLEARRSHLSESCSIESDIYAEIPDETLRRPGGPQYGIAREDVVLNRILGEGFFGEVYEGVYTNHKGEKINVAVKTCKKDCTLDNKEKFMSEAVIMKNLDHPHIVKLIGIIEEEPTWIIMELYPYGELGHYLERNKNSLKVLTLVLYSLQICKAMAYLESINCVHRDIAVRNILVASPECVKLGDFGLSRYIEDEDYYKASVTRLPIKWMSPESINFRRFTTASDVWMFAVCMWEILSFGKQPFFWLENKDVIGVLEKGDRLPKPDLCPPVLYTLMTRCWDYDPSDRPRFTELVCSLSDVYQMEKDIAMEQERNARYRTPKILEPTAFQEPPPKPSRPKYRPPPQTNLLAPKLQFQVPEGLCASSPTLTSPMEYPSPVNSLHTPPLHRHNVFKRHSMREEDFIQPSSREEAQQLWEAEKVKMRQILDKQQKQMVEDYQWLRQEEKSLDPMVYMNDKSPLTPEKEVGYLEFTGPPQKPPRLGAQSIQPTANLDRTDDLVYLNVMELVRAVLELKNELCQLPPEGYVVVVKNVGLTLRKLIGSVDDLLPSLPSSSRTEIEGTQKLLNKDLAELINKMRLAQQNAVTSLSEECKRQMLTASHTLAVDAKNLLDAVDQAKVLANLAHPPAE

Key:
Experiment in all cases: apparent dissociation constant pKd app (kinobead competition) (-log10(M)); higher = stronger binding
[1] = molecular target: ACVR2A (UniProt P27037)
[2] = molecular target: BMPR1A (UniProt P36894)
[3] = molecular target: EPHA2 (UniProt P29317)
[4] = molecular target: FES (UniProt P07332)
[5] = molecular target: IRAK1 (UniProt P51617)
[6] = molecular target: T1, PLK4 (UniProt O00444)
T1 sequence (whole entry): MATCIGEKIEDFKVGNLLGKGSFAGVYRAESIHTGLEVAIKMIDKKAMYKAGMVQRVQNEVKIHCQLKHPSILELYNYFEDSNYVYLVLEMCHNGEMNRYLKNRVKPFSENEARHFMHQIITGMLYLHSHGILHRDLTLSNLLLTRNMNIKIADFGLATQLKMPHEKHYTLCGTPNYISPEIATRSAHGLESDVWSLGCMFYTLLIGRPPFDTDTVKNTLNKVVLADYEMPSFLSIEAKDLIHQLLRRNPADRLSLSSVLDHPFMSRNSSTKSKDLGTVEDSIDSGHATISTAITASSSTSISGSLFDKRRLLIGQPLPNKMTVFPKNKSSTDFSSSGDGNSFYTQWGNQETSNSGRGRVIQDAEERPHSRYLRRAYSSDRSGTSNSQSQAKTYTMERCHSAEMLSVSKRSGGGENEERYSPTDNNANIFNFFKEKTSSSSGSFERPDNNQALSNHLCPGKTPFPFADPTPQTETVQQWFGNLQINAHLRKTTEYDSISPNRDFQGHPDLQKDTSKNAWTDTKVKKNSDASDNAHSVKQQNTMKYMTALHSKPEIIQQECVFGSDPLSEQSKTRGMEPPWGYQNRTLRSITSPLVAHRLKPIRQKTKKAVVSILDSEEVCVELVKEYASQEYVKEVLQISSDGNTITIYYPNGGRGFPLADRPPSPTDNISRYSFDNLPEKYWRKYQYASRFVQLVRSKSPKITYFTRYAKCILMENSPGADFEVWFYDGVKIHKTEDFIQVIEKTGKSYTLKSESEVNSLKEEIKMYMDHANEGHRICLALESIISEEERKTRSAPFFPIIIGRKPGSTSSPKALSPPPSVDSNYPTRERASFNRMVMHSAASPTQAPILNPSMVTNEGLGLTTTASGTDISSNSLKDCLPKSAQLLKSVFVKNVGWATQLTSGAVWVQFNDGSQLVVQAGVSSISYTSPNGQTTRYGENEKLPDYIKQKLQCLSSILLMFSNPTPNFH

[7] = molecular target: PRKCQ (UniProt Q04759)
[8] = molecular target: PTK2B (UniProt Q14289)
[9] = molecular target: T2, TAOK3 (UniProt Q9H2K8)
T2 sequence (whole entry): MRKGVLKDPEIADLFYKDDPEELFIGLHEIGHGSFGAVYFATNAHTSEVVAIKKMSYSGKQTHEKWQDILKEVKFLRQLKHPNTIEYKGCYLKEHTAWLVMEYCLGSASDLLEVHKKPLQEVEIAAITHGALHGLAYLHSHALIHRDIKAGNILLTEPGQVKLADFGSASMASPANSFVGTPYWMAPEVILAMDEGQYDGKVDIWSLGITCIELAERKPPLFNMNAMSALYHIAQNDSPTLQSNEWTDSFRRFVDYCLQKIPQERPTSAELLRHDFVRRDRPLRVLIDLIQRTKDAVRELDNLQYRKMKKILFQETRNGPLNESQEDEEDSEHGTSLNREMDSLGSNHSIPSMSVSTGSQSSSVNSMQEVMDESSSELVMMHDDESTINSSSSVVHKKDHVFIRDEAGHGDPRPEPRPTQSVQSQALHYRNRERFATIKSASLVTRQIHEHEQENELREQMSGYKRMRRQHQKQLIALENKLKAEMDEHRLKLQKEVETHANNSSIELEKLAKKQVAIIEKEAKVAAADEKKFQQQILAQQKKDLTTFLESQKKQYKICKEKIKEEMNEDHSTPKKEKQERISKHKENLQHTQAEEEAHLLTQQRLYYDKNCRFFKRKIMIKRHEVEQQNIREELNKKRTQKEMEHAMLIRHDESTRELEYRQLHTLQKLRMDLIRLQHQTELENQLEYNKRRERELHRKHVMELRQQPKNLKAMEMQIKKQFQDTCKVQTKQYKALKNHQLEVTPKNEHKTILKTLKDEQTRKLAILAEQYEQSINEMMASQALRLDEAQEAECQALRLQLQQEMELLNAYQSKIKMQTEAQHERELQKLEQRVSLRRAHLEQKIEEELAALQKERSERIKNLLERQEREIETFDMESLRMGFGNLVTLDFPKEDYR

apparent dissociation constant pKd app (-log10) [1]	apparent dissociation constant pKd app (-log10) [2]	apparent dissociation constant pKd app (-log10) [3]	apparent dissociation constant pKd app (-log10) [4]	apparent dissociation constant pKd app (-log10) [5]	apparent dissociation constant pKd app (-log10) [6]	apparent dissociation constant pKd app (-log10) [7]	apparent dissociation constant pKd app (-log10) [8]	apparent dissociation constant pKd app (-log10) [9]	Compound
< 4.6	< 4.8	< 4.6	< 4.7	< 4.6	< 4.9	< 4.5	< 4.8	< 4.5	O=C(c1cc(Cc2n[nH]c(=O)c3ccccc23)ccc1F)N1CCN(C(=O)C2CC2)CC1 [Olaparib]
< 4.6	< 4.8	< 4.6	< 4.7	< 4.6	< 4.9	< 4.5	< 4.8	< 4.5	NC(=O)c1cccc2cn(-c3ccc([C@@H]4CCCNC4)cc3)nc12 [Niraparib]
< 4.6	< 4.8	< 4.6	< 4.7	< 4.6	< 4.9	< 4.5	< 4.8	< 4.5	Cn1ncnc1[C@H]1c2n[nH]c(=O)c3cc(F)cc(c23)N[C@@H]1c1ccc(F)cc1 [Talazoparib]
